Results reported in PubChem BioAssay AID588511 (Johns Hopkins Ion Channel Center, 2011).
Only a part is listed here, and it is no random draw. Some tests of the compounds listed are not included; inactive here does not mean inactive elsewhere. Activity calls are given as the source filed them.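 The calls were made as follows: active = ratio plate-corrected score three or more library SD toward inhibition, starting fluorescence score within five deviations; inactive = the rest.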

The chains behind the UniProt entries cited, without tags or fusion partners.
UniProt Q8BHY3, whole entry: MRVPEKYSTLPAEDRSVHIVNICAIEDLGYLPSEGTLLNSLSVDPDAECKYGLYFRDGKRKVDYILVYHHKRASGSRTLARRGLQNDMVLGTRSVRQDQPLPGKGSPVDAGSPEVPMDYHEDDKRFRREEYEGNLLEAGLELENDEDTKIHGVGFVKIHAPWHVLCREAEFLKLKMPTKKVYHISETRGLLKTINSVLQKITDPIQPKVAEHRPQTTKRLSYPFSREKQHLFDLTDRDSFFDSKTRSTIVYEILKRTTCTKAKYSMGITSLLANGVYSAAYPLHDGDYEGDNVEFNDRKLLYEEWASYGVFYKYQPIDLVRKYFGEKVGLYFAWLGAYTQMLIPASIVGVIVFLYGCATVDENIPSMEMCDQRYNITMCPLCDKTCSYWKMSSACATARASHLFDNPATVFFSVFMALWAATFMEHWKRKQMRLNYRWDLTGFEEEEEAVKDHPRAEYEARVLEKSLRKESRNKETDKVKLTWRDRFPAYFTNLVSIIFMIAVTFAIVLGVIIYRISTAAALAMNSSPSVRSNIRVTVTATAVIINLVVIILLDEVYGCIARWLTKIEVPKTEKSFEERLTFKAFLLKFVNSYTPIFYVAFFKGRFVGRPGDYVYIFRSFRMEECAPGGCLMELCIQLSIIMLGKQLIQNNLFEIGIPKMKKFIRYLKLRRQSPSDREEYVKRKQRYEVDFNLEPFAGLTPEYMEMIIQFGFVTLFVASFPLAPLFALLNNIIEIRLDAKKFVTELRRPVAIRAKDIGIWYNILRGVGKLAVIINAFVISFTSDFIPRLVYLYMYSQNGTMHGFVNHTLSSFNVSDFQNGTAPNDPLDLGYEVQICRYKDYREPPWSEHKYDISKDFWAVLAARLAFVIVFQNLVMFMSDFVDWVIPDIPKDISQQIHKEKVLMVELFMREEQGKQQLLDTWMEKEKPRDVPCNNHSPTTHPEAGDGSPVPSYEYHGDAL

The molecules below were run against Anoctamin-1 (Mus musculus) (UniProt Q8BHY3) (assay: TMEM16A chloride channel inhibitors, primary screen, cell-based, HTS (AID 588511)). Details: HEK293 TMEM16A/YFP iodide influx fluorescence, ionomycin; at 10 µM.

SMILES | outcome
CN(C)c1ccc(C(=O)NCC2(N(C)C)CCCCC2)cc1 | inactive
CN(C)C1CCCC1OC(=O)C(O)(c1ccccc1)c1ccccc1 (centres undefined) | inactive
Cc1ccccc1C(=O)NCC1(N2CCCCC2)CCCCC1 | inactive
O=C(NCC1(N2CCCCC2)CCCCC1)c1cc(F)c(F)cc1Cl | inactive
C=CCN1CCN(CCOC(=O)C(O)(c2ccccc2)c2ccccc2)CC1 | inactive
COc1ccc(C(=O)NCC2(N(C)C)CCCCC2)cc1 | inactive
O=C(NCC1(N2CCCCC2)CCCCC1)c1cccc(Br)c1 | inactive
CCN1CCCC(OC(=O)C2(O)c3ccccc3C=Cc3ccccc32)C1 (centres undefined) | inactive
Cc1cc(C(=O)NCC2(N3CCCCC3)CCCCC2)ccc1[N+](=O)[O-] | inactive
O=C(NCC1(N2CCCCC2)CCCCC1)c1cc([N+](=O)[O-])ccc1Cl | inactive
CN1[C@@H]2CC[C@H]1CC(OC(=O)C(O)(c1ccccc1)c1ccccc1)C2 (some centres undefined) | inactive
COc1cc(SC)ccc1C(=O)NCC1(N(C)C)CCCCC1 | inactive
CCN(CC)CC(C)C(C)OC(=O)C(O)(c1ccccc1)c1ccccc1 (centres undefined) | inactive
CC(C)N1C(=O)CC2(CCN(CCOC(=O)C(O)(c3ccccc3)c3ccccc3)CC2)C1=O | inactive
Cc1ccc(C(=O)NCC2(N3CCCCC3)CCCCC2)cc1 | inactive
O=C(OC1CN2CCC1CC2)C(CO)(c1ccccc1)c1ccccc1 (centres undefined) | inactive
COc1ccc(Br)c(C(=O)NCC2(N3CCCCC3)CCCCC2)c1 | inactive
CC(C)Oc1ccc(C(=O)NCC2(N(C)C)CCCCC2)cc1 | inactive
CN(C)c1cccc(C(=O)NCC2(N(C)C)CCCCC2)c1 | inactive
CN(C)C1(CNC(=O)c2ccc(Br)cc2)CCCCC1 | inactive
COc1cc(C(=O)NCC2(N(C)C)CCCCC2)c([N+](=O)[O-])cc1OC | inactive
COc1ccc(Cl)cc1C(=O)NCC1(N(C)C)CCCCC1 | inactive
COc1cccc(C(=O)NCC2(N3CCCCC3)CCCCC2)c1 | inactive
O=C(NCC1(N2CCCCC2)CCCCC1)c1cccc(Cl)c1 | inactive
